Assay results: US8815844B2, “Mitochondrial activity inhibitors of cancer-initiating cells and use thereof” (Universite de Geneve, priority 2009, dated 2014)

System: normal brain cells

## Oligomycin A/B
FIG. 6
  effect on normal brain cells: eradicate any kind of brain cells including normal and glioma ones
Exposure for 10 days
  viability of normal brain cells: sensitive
